Experimental data taken from patent US20250195530A1, “POLQ INHIBITORS” (ASTRAZENECA AB, priority 2022, published 2025).

Amino acid sequences for entries named in this document (tags omitted). Residues count along the entry.
UniProt O75417, 1780-2590: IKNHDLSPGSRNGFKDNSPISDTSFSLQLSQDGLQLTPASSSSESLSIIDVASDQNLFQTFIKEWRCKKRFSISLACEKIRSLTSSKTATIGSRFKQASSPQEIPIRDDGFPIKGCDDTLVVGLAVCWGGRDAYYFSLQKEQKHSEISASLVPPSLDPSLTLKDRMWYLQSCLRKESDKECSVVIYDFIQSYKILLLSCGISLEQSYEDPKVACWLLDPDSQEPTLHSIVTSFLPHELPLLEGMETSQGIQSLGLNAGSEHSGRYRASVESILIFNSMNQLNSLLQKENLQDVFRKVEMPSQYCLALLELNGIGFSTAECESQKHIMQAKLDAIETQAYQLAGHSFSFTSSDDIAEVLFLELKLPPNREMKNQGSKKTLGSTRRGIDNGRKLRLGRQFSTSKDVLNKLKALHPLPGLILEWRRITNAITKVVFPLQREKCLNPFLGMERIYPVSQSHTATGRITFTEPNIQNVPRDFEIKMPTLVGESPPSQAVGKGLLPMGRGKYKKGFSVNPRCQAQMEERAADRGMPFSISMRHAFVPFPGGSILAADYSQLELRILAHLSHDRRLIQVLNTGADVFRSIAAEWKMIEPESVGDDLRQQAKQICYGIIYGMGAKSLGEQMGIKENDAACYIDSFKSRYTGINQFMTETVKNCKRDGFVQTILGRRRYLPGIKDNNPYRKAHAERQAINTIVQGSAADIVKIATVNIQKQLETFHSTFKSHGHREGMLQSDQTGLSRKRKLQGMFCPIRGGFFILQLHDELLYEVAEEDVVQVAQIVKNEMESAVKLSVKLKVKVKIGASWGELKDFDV

Biological target: isolated polymerase domain (I1780-V2590) of DNA polymerase theta (Polθ) (Homo sapiens (Human), UniProt O75417)
Assay: biochemical

SMILES: Cc1ccnc(Cn2c(-c3ccc(C(=O)N4CC[C@@](C)(O)C4)cc3Cl)nc3c(OC4(C)CC4)ncnc32)c1 [Example T463, (R)-(3-chloro-4-(6-(1-methylcyclopropoxy)-9-((4-methylpyridin-2-yl)methyl)-9H-purin-8-yl)phenyl)(3-hydroxy-3-methylpyrrolidin-1-yl)methanone]
- IC50: 31.6 nM

SMILES: CC1(Oc2ncnc3c2nc(-c2ccc(F)c(OCCC(=O)O)c2Cl)n3Cc2cccc(Cl)c2)CC1 [Example U65, 3-(2-chloro-3-(9-(3-chlorobenzyl)-6-(1-methylcyclopropoxy)-9H-purin-8-yl)-6-fluorophenoxy)propanoic acid]
- IC50: 2.51 nM

SMILES: Cc1ccnc(Cn2c(-c3ccc(N4CCC4=O)cc3Cl)nc3c(OC4(C)CC4)ncnc32)c1 [Example T95, 1-(3-chloro-4-(6-(1-methylcyclopropoxy)-9-((4-methylpyridin-2-yl)methyl)-9H-purin-8-yl)phenyl)azetidin-2-one]
- IC50: 7.94 nM

SMILES: Cc1ccnc(Cn2c(-c3ccc(OCCC4(O)COC4)cc3Cl)nc3c(OC4(C)CC4)ncnc32)c1 [Example T334, 3-(2-(3-chloro-4-(6-(1-methylcyclopropoxy)-9-((4-methylpyridin-2-yl)methyl)-9H-purin-8-yl)phenoxy)ethyl)oxetan-3-ol]
- IC50: 6.31 nM

SMILES: Cc1ccnc(Cn2c(-c3cccc(OCCCN(C)C)c3Cl)nc3c(OC4(C)CC4)ncnc32)c1 [Example T386, 3-(2-chloro-3-(6-(1-methylcyclopropoxy)-9-((4-methylpyridin-2-yl)methyl)-9H-purin-8-yl)phenoxy)-N,N-dimethylpropan-1-amine]
- IC50: 6.31 nM

SMILES: CC1(Oc2ncnc3c2nc(-c2cccc(OCCCCCCC(=O)O)c2Cl)n3Cc2cccc(Cl)c2)CC1 [Example T564, 7-(2-chloro-3-(9-(3-chlorobenzyl)-6-(1-methylcyclopropoxy)-9H-purin-8-yl)phenoxy)heptanoic acid]
- IC50: 7.94 nM

SMILES: Cc1nn(C)c(C)c1CCn1c(-c2ccc(CC(N)=O)cc2Cl)nc2c(OC3(C)CC3)ncnc21 [Example T147, 2-(3-chloro-4-(6-(1-methylcyclopropoxy)-9-(2-(1,3,5-trimethyl-1H-pyrazol-4-yl)ethyl)-9H-purin-8-yl)phenyl)acetamide]
- IC50: ≥ 10000 nM

SMILES: Cc1ccnc(Cn2c(-c3ccc(CC(=O)N(C)C)cc3Cl)nc3c(OC4(C)CC4)ncnc32)c1 [Example T210, 2-(3-chloro-4-(6-(1-methylcyclopropoxy)-9-((4-methylpyridin-2-yl)methyl)-9H-purin-8-yl)phenyl)-N,N-dimethylacetamide]
- IC50: 3.16 nM

SMILES: Cc1nc(Cn2c(-c3ccc(CC(N)=O)cc3Cl)nc3c(OC4(C)CC4)ncnc32)sc1C [Example T24, 2-(3-chloro-4-(9-((4,5-dimethylthiazol-2-yl)methyl)-6-(1-methylcyclopropoxy)-9H-purin-8-yl)phenyl)acetamide]
- IC50: 12.6 nM

SMILES: Cc1ccnc(Cn2c(-c3ccc(C(=O)N(C)CC4(O)CC4)cc3Cl)nc3c(OC4(C)CC4)ncnc32)c1 [Example T462, 3-chloro-N-((1-hydroxycyclopropyl)methyl)-N-methyl-4-(6-(1-methylcyclopropoxy)-9-((4-methylpyridin-2-yl)methyl)-9H-purin-8-yl)benzamide]
- IC50: 63.1 nM

SMILES: Cc1ccnc(Cn2c(-c3ccc(CN4CC[C@@H](O)C4)cc3Cl)nc3c(OC4(C)CC4)ncnc32)c1 [Example T353, (R)-1-(3-chloro-4-(6-(1-methylcyclopropoxy)-9-((4-methylpyridin-2-yl)methyl)-9H-purin-8-yl)benzyl)pyrrolidin-3-ol]
- IC50: 5.01 nM

SMILES: CC1(Oc2ncnc3c2nc(-c2ccc(OCCN4CC5(CCN5)C4)cc2Cl)n3Cc2cc(Cl)ccn2)CC1 [Example T486, 8-(4-(2-(1,6-diazaspiro[3.3]heptan-6-yl)ethoxy)-2-chlorophenyl)-9-((4-chloropyridin-2-yl)methyl)-6-(1-methylcyclopropoxy)-9H-purine]
- IC50: 6.31 nM

SMILES: Cc1ccnc(Cn2c(-c3ccc(CCN4CC[C@@H](O)C4)cc3Cl)nc3c(OC4(C)CC4)ncnc32)c1 [Example T511, (R)-1-(3-chloro-4-(6-(1-methylcyclopropoxy)-9-((4-methylpyridin-2-yl)methyl)-9H-purin-8-yl)phenethyl)pyrrolidin-3-ol]
- IC50: 3.98 nM

SMILES: CNCCOc1ccc(-c2nc3c(OC4(C)CC4)ncnc3n2Cc2cc(Cl)ccn2)c(Cl)c1 [Example T67, 2-(3-chloro-4-(9-((4-chloropyridin-2-yl)methyl)-6-(1-methylcyclopropoxy)-9H-purin-8-yl)phenoxy)-N-methylethan-1-amine]
- IC50: 10 nM

SMILES: CNC(=O)COc1ccc(-c2nc3c(OC4(C)CC4)ncnc3n2Cc2cc(Cl)ccn2)c(Cl)c1 [Example T51, 2-(3-chloro-4-(9-((4-chloropyridin-2-yl)methyl)-6-(1-methylcyclopropoxy)-9H-purin-8-yl)phenoxy)-N-methylacetamide]
- IC50: 5.01 nM

SMILES: CNCCOc1ccc(-c2nc3c(OC4(C)CC4)ncnc3n2Cc2ncc(C)s2)c(Cl)c1 [Example T34, 2-(3-chloro-4-(6-(1-methylcyclopropoxy)-9-((5-methylthiazol-2-yl)methyl)-9H-purin-8-yl)phenoxy)-N-methylethan-1-amine]
- IC50: 12.6 nM

SMILES: Cc1ccnc(Cn2c(-c3ccc(C(=O)NC[C@H](C)F)cc3Cl)nc3c(OC4(C)CC4)ncnc32)c1 [Example T190, (S)-3-chloro-N-(2-fluoropropyl)-4-(6-(1-methylcyclopropoxy)-9-((4-methylpyridin-2-yl)methyl)-9H-purin-8-yl)benzamide]
- IC50: 12.6 nM

SMILES: CC1(Oc2ncnc3c2nc(-c2ccc(OCCN4CCNCC4)cc2Br)n3Cc2cc(Cl)ccn2)CC1 [Example T348, 8-(2-bromo-4-(2-(piperazin-1-yl)ethoxy)phenyl)-9-((4-chloropyridin-2-yl)methyl)-6-(1-methylcyclopropoxy)-9H-purine]
- IC50: 5.01 nM

SMILES: Cc1ccnc(Cn2c(-c3ccc(OCC(=O)N4CC(C)(O)C4)cc3Cl)nc3c(OC4(C)CC4)ncnc32)c1 [Example T477, 2-(3-chloro-4-(6-(1-methylcyclopropoxy)-9-((4-methylpyridin-2-yl)methyl)-9H-purin-8-yl)phenoxy)-1-(3-hydroxy-3-methylazetidin-1-yl)ethan-1-one]
- IC50: 10 nM

SMILES: CN(C)CCOc1ccc(-c2nc3c(OC4(C)CC4)ncnc3n2Cc2cc(Cl)ccn2)c(Cl)c1 [Example T135, 2-(3-chloro-4-(9-((4-chloropyridin-2-yl)methyl)-6-(1-methylcyclopropoxy)-9H-purin-8-yl)phenoxy)-N,N-dimethylethan-1-amine]
- IC50: 7.94 nM

SMILES: Cc1ccnc(Cn2c(-c3ccc(CC(=O)N4C[C@H]5C[C@@H](C4)O5)cc3Cl)nc3c(OC4(C)CC4)ncnc32)c1 [Example T547, rel-1-((1R,5S)-6-oxa-3-azabicyclo[3.1.1]heptan-3-yl)-2-(3-chloro-4-(6-(1-methylcyclopropoxy)-9-((4-methylpyridin-2-yl)methyl)-9H-purin-8-yl)phenyl)ethan-1-one]
- IC50: 7.94 nM

SMILES: Cc1ccnc(Cn2c(-c3ccc(N4CCC5(CCN5)CC4)cc3Cl)nc3c(OC4(C)CC4)ncnc32)c1 [Example T586, 8-(2-chloro-4-(1,7-diazaspiro[3.5]nonan-7-yl)phenyl)-6-(1-methylcyclopropoxy)-9-((4-methylpyridin-2-yl)methyl)-9H-purine]
- IC50: 7.94 nM
